According to PMC5773532, “Crystal structure of an assembly intermediate of respiratory Complex II” (Nature Communications, 2018):

Target: T1, Escherichia coli succinate:quinone oxidoreductase flavoprotein subunit SdhA (isolated subunit) (E. coli, UniProt P0AC41 1-588)
T1 construct: SdhA, flavoprotein subunit of E. coli succinate:quinone oxidoreductase (SdhABCD), isolated subunit; construct not described; also called SdhA subunit
T1 sequence (looked up): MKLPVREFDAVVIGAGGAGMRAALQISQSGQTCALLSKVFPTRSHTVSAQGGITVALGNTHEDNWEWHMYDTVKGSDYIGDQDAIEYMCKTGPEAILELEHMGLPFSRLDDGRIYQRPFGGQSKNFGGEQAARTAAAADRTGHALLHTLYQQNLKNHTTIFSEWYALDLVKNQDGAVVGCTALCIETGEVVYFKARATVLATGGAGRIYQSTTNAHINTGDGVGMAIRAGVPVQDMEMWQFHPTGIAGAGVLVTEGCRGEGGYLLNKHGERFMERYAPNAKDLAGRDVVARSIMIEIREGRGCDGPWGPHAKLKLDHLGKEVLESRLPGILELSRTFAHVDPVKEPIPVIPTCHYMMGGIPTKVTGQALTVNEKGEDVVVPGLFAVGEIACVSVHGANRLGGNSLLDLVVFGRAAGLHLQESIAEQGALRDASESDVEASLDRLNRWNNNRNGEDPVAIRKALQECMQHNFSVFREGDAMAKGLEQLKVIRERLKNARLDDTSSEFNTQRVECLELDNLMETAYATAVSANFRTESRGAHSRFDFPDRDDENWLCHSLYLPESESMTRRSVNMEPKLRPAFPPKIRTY
Assay: optical difference spectroscopy (FAD absorbance titration); isolated flavoprotein (7 to 9 µM) in the cuvette titrated with SdhE; 50 mM Bis-Tris-Propane pH 8.0, 25 °C; 387–458 nm; fit of absorbance change against total ligand concentration
Conditions: both partners purified

Kd: 1.5 ± 0.2 µM
B1: Escherichia coli SdhE assembly factor (natural protein, E. coli)
chain: MDINNKARIHWACRRGMRELDISIMPFFEHEYDSLSDDEKRIFIRLLECDDPDLFNWLMNHGKPADAELEMMVRLIQTRNRERGPVAI
notes: SdhE, FAD assembly factor of E. coli Complex II, as used in optical titrations and kinetics; construct not described
